In US8058243B2, “Method for treating a brain cancer with ifenprodil” (HSC Research and Development Limited Partnership, priority 2006, dated 2011):

Tested on: murine neural precursor cells (neurosphere cultures)
Experiment: HTS of LOPAC library against secondary neurosphere cultures, MTT proliferation assay at 3 μM, day 7 (z score, P value)
Format: cell-based, mouse
Conditions: for Z score: 3 μM

CN(CCCl)Cc1cc(Cl)c(NC2=NCCN2)c(Cl)c1
Z score (LOPAC library screen, MTT, neurosphere cultures): 0.8606
Z score (LOPAC screen, neurosphere MTT proliferation, day 7): 0.861
Activity (yes/no: significantly inhibited neurosphere proliferation (P<0.01) in primary screen): no
